Experimental data as given in EP3816180A1.

Target: M13-GGS-cpHaloΔ9mer
Experiment: cell-based or functional assay

“9mer-GGS-CaM (from UniProt P0DP23 3-149)” was tested, and the second order rate constant for the labelling (FP kinetics, Halo-TMR, in presence of calcium) was 6700 s^-1M^-1.
